# Assay results published in patent US20110182831A1 (priority 2010, published 2011).
# Settings: pH 3
structure (smiles),measurement,value
"CN1CCCC1c1cccnc1.O=C(O)C(O)C(O)C(=O)O (centres unmarked) [Nicotine Bitartrate, nicotine bitartrate]",nicotine concentration on storage,unaltered
same,"no loss of nicotine into the polymeric dosage form materials, comparison of salts",better
